# Assay results taken from patent US20060160798A1, “Viral polymerase inhibitors” (Boehringer Ingelheim (Canada) Ltd., priority 2001, published 2006).
# pIC50: −log10 of the molar value.
# Target: hepatitis C virus RNA dependant polymerase (NS5B) (Hepatitis C virus genotype 1b, UniProt P26663)
# Assay: biochemical
# Conditions: IC50, HCV NS5B polymerase, 10 nM enzyme, 1.5 hours at room temperature
row,SMILES,pIC50
1,O=C(N[C@@H](Cc1c[nH]c2ccc(O)cc12)c1cscn1)c1ccc2c(C3CCCCC3)c(-c3ccccc3)[nH]c2c1 [Entry 1001],5.00 to 6.00
2,O=C(N[C@@H](Cc1c[nH]c2ccc(O)cc12)C(=O)O)c1ccc2c(C3CCCCC3)c(-c3ccccc3)[nH]c2c1 [Entry 1002],> 6.30
3,O=C(N[C@@H](Cc1c[nH]c2ccc(O)cc12)c1cscn1)c1ccc2c(C3CCCCC3)c(-c3ccccn3)[nH]c2c1 [Entry 1003],5.00 to 6.00
4,O=C(O)/C=C/c1ccc(Nc2ccccc2NC(=O)c2ccc3c(C4CCCCC4)c(-c4ccoc4)[nH]c3c2)cc1 [Entry 1005],5.00 to 6.00
5,CC(=O)Nc1ccc(-c2c(C3CCCC3)c3ccc(C(=O)NC(C)(C)C(=O)Nc4cccc5c4cc(C(=O)O)n5C)cc3n2C)cc1C [Entry 1006],> 6.30
6,O=C(O)COc1ccc2[nH]cc(C[C@H](NC(=O)c3ccc4c(C5CCCCC5)c(-c5ccoc5)n(CCCOc5ccc(C(=O)c6ccccc6)cc5)c4c3)C(=O)O)c2c1 [Entry 1007],5.00 to 6.00
7,Cn1c(-c2cccc(NC(=O)c3ccc(C(=O)c4ccccc4)cc3)c2)c(C2CCCCC2)c2ccc(C(=O)N[C@@H](Cc3c[nH]c4ccc(OCC(=O)O)cc34)C(=O)O)cc21 [Entry 1008],6.00 to 6.30
8,Cn1c(-c2ccc(NC(=O)c3ccc(C(=O)c4ccccc4)cc3)cn2)c(C2CCCCC2)c2ccc(C(=O)N[C@@H](Cc3c[nH]c4ccc(OCC(=O)O)cc34)C(=O)O)cc21 [Entry 1009],5.00 to 6.00
9,Cn1c(-c2ccc(C(=O)c3ccccc3)cc2)c(C2CCCCC2)c2ccc(C(=O)N[C@@H](Cc3c[nH]c4ccc(OCC(=O)O)cc34)C(=O)O)cc21 [Entry 1011],6.00 to 6.30
10,Cn1c(-c2ccc(C(=O)c3ccccc3)cn2)c(C2CCCCC2)c2ccc(C(=O)N[C@@H](Cc3c[nH]c4ccc(OCC(=O)O)cc34)C(=O)O)cc21 [Entry 1012],> 6.30
11,Cc1c(C(=O)O)sc2ccc(NC(=O)[C@]3(NC(=O)c4ccc5c(C6CCCC6)c(-c6ccccn6)n(C)c5c4)CCN(C)C3)cc12 [Entry 1013],> 6.30
12,Cn1c(-c2ccccn2)c(C2CCCC2)c2ccc(C(=O)NC3(c4nc5ccc(C=CC(=O)O)cc5[nH]4)CCCC3)cc21 [Entry 1014],> 6.30
13,Cn1c(-c2ccccn2)c(C2CCCC2)c2ccc(C(=O)NC3(/C=C/c4ccc(/C=C/C(=O)O)cc4)CCCC3)cc21 [Entry 1015],> 6.30
14,Cn1c(-c2ccccn2)c(C2CCCC2)c2ccc(C(=O)NC(C)(C)/C=C/c3ccc(/C=C/C(=O)O)cc3)cc21 [Entry 1016],> 6.30
15,CC(NC(=O)c1ccc2c(C3CCCC3)c(-c3ccccn3)n(C)c2c1)c1nc2ccc(C=CC(=O)O)cc2[nH]1 (stereo not shown) [Entry 1017],> 6.30
16,COc1ccc(CNC(=O)c2ccc3c(C4CCCCC4)c(-c4ccccn4)[nH]c3c2)cc1OC [Entry 1019],5.00 to 6.00
17,CN1CCC(NC(=O)c2ccc3c(C4CCCC4)c(-c4ccccn4)n(C)c3c2)(c2nc3ccc(C=CC(=O)O)cc3[nH]2)CC1 [Entry 1020],> 6.30
18,CC(NC(=O)c1ccc2c(C3CCCC3)c(-c3ccccn3)n(C)c2c1)c1nc2ccc(C=CC(N)=O)cc2[nH]1 (stereo not shown) [Entry 1021],> 6.30
19,O=C(O)COc1ccc2[nH]cc(C[C@H](NC(=O)c3ccc4c(C5CCCC5)c(-c5ccoc5)sc4c3)C(=O)O)c2c1 [Entry 1022],> 6.30
20,Cc1nc([C@H](Cc2c[nH]c3ccc(O)cc23)NC(=O)c2ccc3c(C4CCCC4)c(-c4ccoc4)sc3c2)cs1 [Entry 1024],> 6.30
21,CN(C)CCC(NC(=O)c1ccc2c(C3CCCC3)c(-c3ccccn3)n(C)c2c1)c1nc2ccc(C=CC(=O)O)cc2[nH]1 (stereo not shown) [Entry 1025],> 6.30

row,SMILES,pIC50
1,Cn1c(-c2ccccn2)c(C2CCCC2)c2ccc(C(=O)NC(C)(C)c3nc(C(=O)O)co3)cc21 [Entry 1026],6.00 to 6.30
2,Cn1c(-c2ccccn2)c(C2CCCC2)c2ccc(C(=O)NC3(c4nc5cc(C=CC(N)=O)ccc5[nH]4)CCC3)cc21 [Entry 1027],> 6.30
3,CN1CCC(NC(=O)c2ccc3c(C4CCCC4)c(-c4ccccn4)n(C)c3c2)(c2nc3cc(C=CC(=O)O)ccc3[nH]2)C1 (stereo not shown) [Entry 1028],> 6.30
4,CNC(=O)c1coc(C(C)(C)NC(=O)c2ccc3c(C4CCCC4)c(-c4ccccn4)n(C)c3c2)n1 [Entry 1029],6.00 to 6.30
5,Cn1c(-c2ccoc2)c(C2CCCCC2)c2ccc(C(=O)N[C@@]3(C(=O)Nc4ccc(-c5cnc(N)nc5)cc4)CCNC3)cc21 [Entry 1031],> 6.30
6,Cn1c(-c2ccccn2)c(C2=CCCCC2)c2ccc(C(=O)NC3(C(=O)Nc4ccc(/C=C/C(=O)O)cc4)CCC3)cc21 [Entry 1032],> 6.30
7,Cn1c(-c2ccccn2)c(C2=CCCC2)c2ccc(C(=O)NC3(C(=O)Nc4ccc(/C=C/C(=O)O)cc4)CCC3)cc21 [Entry 1033],6.00 to 6.30
8,O=C(O)/C=C/c1ccc(NC(=O)C2(NC(=O)c3ccc4c(C5CCCCC5)c(-c5ccccc5)[nH]c4c3)CCCC2)cc1 [Entry 2002],6.00 to 6.30
9,O=C(O)/C=C/c1ccc(NC(=O)C2(NC(=O)c3ccc4c(C5CCCCC5)c(Br)[nH]c4c3)CCCC2)cc1 [Entry 2003],5.00 to 6.00
10,C[C@@H](NC(=O)c1ccc2c(C3CCCCC3)c(-c3ccoc3)[nH]c2c1)C(=O)Nc1ccc(/C=C/C(=O)O)cc1 [Entry 2004],6.00 to 6.30
11,C/C(=C\c1ccc(NC(=O)C2(NC(=O)c3ccc4c(C5CCCCC5)c(-c5ccoc5)[nH]c4c3)CCCC2)cc1)C(=O)O [Entry 2005],6.00 to 6.30
12,Cn1c(-c2ccoc2)c(C2CCCCC2)c2ccc(C(=O)NC3(C(=O)Nc4ccc(/C=C/C(=O)O)cc4)CCCC3)cc21 [Entry 2006],6.00 to 6.30
13,O=C(O)Cn1ccc2cc(NC(=O)C3(NC(=O)c4ccc5c(C6CCCCC6)c(-c6ccoc6)[nH]c5c4)CCCC3)ccc21 [Entry 2008],6.00 to 6.30
14,C[C@@H](NC(=O)c1ccc2c(C3CCCCC3)c(-c3ccoc3)[nH]c2c1)C(=O)Nc1ccc(/C=C/C(=O)O)cn1 [Entry 2009],6.00 to 6.30
15,C=CCn1c(C(=O)O)cc2cc(NC(=O)[C@@H](C)NC(=O)c3ccc4c(C5CCCCC5)c(-c5ccoc5)[nH]c4c3)ccc21 [Entry 2011],6.00 to 6.30
16,O=C(NC1(C(=O)Nc2ccc3c(Cl)c(C(=O)O)sc3c2)CCCC1)c1ccc2c(C3CCCCC3)c(-c3ccoc3)[nH]c2c1 [Entry 2013],6.00 to 6.30
17,CC#CCn1c(C(=O)O)cc2cc(NC(=O)[C@@H](C)NC(=O)c3ccc4c(C5CCCCC5)c(-c5ccoc5)[nH]c4c3)ccc21 [Entry 2014],5.00 to 6.00
18,CCn1c(C(=O)O)cc2cc(NC(=O)[C@@H](C)NC(=O)c3ccc4c(C5CCCCC5)c(-c5ccoc5)[nH]c4c3)ccc21 [Entry 2015],6.00 to 6.30
19,O=C(O)Cn1cnc2ccc(NC(=O)C3(NC(=O)c4ccc5c(C6CCCCC6)c(-c6ccoc6)[nH]c5c4)CCCC3)cc21 [Entry 2016],5.00 to 6.00
20,CC(C)(NC(=O)c1ccc2c(C3CCCCC3)c(-c3ccoc3)[nH]c2c1)C(=O)Nc1ccc(-c2nc(C(=O)O)cs2)cc1 [Entry 2017],6.00 to 6.30
21,CC(C)(NC(=O)c1ccc2c(C3CCCCC3)c(-c3ccccc3)[nH]c2c1)C(=O)Nc1ccc(-c2nc(C(=O)O)cs2)cc1 [Entry 2018],6.00 to 6.30

row,SMILES,pIC50
1,CC(C)(NC(=O)c1ccc2c(C3CCCCC3)c(-c3ccsc3)[nH]c2c1)C(=O)Nc1ccc(-c2nc(C(=O)O)cs2)cc1 [Entry 2019],6.00 to 6.30
2,CCn1c(-c2ccccc2)c(C2CCCCC2)c2ccc(C(=O)NC(C)(C)C(=O)Nc3ccc(/C=C/C(=O)O)cc3)cc21 [Entry 2020],6.00 to 6.30
3,CC(C)n1c(-c2ccccc2)c(C2CCCCC2)c2ccc(C(=O)NC(C)(C)C(=O)Nc3ccc(/C=C/C(=O)O)cc3)cc21 [Entry 2022],5.00 to 6.00
4,Cn1cc(C2CCCCC2)c2ccc(C(=O)NC(C)(C)C(=O)Nc3ccc(/C=C/C(=O)O)cc3)cc21 [Entry 2023],5.00 to 6.00
5,CC(C)(NC(=O)c1ccc2c(C3CCCCC3)c(-c3ccoc3)[nH]c2c1)C(=O)Nc1ccc(-c2csc(C(N)=O)n2)cc1 [Entry 2024],6.00 to 6.30
6,O=C(O)/C=C/c1ccc(NC(=O)C2(NC(=O)c3ccc4c(C5CCCCC5)c(-c5ccoc5)[nH]c4c3)CCSCC2)cc1 [Entry 2025],6.00 to 6.30
7,O=C(O)/C=C/c1ccc(NC(=O)C2(NC(=O)c3ccc4c(C5CCCCC5)c(-c5ccccn5)[nH]c4c3)CCCC2)cc1 [Entry 2033],6.00 to 6.30
8,Cn1c(-c2ccccc2)c(C2CCCCC2)c2ccc(C(=O)NC3(C(=O)Nc4ccc(/C=C/C(=O)O)cc4)CCCC3)cc21 [Entry 2034],> 6.30
9,O=C(O)/C=C/c1ccc(NC(=O)C2(NC(=O)c3ccc4c(C5CCCCC5)c(-c5ccccc5)[nH]c4c3)CCCC2)cc1 [Entry 2035],> 6.30
10,O=C(O)/C=C/c1ccc(NC(=O)C2(NC(=O)c3ccc4c(C5CCCCC5)c(-c5ccoc5)[nH]c4c3)CCCC2)cc1 [Entry 2036],> 6.30
11,O=C(O)/C=C/c1ccc(NC(=O)C2(NC(=O)c3ccc4c(C5CCCCC5)c(-c5ccco5)[nH]c4c3)CCCC2)cc1 [Entry 2037],> 6.30
12,O=C(O)/C=C/c1ccc(NC(=O)C2(NC(=O)c3ccc4c(C5CCCCC5)c(-c5ccsc5)[nH]c4c3)CCCC2)cc1 [Entry 2038],> 6.30
13,O=C(O)/C=C/c1ccc(NC(=O)C2(NC(=O)c3ccc4c(C5CCCCC5)c(-c5ccoc5)n(Cc5ccccc5)c4c3)CCCC2)cc1 [Entry 2040],> 6.30
14,O=C(O)/C=C/c1ccc(NC(=O)C2(NC(=O)c3ccc4c(C5CCCCC5)c(-c5cccs5)[nH]c4c3)CCCC2)cc1 [Entry 2042],> 6.30
15,O=C(O)/C=C/c1ccc(NC(=O)C2(NC(=O)c3ccc4c(C5CCCCC5)c(-c5ccoc5)n(Cc5ccncc5)c4c3)CCCC2)cc1 [Entry 2043],> 6.30
16,Cn1c(C(=O)O)cc2cc(NC(=O)C3(NC(=O)c4ccc5c(C6CCCCC6)c(-c6ccoc6)n(Cc6cccc(C(=O)O)c6)c5c4)CCNCC3)ccc21 [Entry 2045],> 6.30
17,Cc1c(C(=O)O)sc2ccc(NC(=O)C3(NC(=O)c4ccc5c(C6CCCCC6)c(-c6ccoc6)[nH]c5c4)CCCC3)cc12 [Entry 2046],> 6.30
18,O=C(NC1(C(=O)Nc2ccc(-c3ccc(C(=O)O)o3)cc2)CCCC1)c1ccc2c(C3CCCCC3)c(-c3ccoc3)[nH]c2c1 [Entry 2048],> 6.30
19,CN1CCC(NC(=O)c2ccc3c(C4CCCCC4)c(-c4ccoc4)[nH]c3c2)(C(=O)Nc2ccc3c(c2)cc(C(=O)O)n3C)CC1 [Entry 2049],> 6.30
